Measurements as given in ChEMBL document CHEMBL1148507, “Discovery of a novel, orally active, small molecule gonadotropin-releasing hormone (GnRH) receptor antagonist” (J Med Chem, 2006).
pIC50, pKi: −log10 of the molar value.

Key:
[1] = biological target: T1, Gonadotropin-releasing hormone receptor (Homo sapiens, UniProt P30968); experiment: Binding affinity to human recombinant GnRH receptor
T1 sequence (P30968 whole entry): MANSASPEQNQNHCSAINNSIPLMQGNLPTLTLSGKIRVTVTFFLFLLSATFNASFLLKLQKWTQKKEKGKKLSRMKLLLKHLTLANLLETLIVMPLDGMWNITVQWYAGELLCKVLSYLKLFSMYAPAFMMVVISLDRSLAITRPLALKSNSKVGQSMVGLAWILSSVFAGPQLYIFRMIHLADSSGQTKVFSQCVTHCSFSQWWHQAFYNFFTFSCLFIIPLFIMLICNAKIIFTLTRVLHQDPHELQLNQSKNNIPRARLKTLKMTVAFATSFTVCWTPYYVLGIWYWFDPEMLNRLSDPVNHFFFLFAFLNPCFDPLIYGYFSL

[2] = biological target: T1, Gonadotropin-releasing hormone receptor; experiment: Antagonist activity at human recombinant GnRH receptor assessed as inhibition of GnRH-stimulated inositol phosphate accumulation; assay type: functional

pKi [1]: 9.40
pIC50 [2]: 8.48
SMILES: COc1nc(NCCCN2CCOCC2)nc(OC)c1NC(=O)c1ccc(Oc2cc3c(cc2C)CCC3(C)C)o1
